# In paper PMC4515084 (Chemmedchem, 2015):
# By UniProt entry, the sequences of proteins in these tests, tags left out. Residues count along the entry.
# UniProt P08246, 30-267: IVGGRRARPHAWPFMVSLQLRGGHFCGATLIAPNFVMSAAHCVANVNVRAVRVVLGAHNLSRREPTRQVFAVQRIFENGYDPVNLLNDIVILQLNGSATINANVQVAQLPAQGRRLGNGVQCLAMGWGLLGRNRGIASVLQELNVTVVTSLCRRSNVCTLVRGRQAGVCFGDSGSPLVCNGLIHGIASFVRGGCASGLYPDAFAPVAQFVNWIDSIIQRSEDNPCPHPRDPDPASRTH
# Target: Human neutrophil elastase (HNE) (Homo sapiens, UniProt P08246)
SMILES,mode of inhibition,LipE
CC(=O)C1=C(C)N(c2cccc(C(F)(F)F)c2)C(=O)N[C@@H]1c1ccc(C#N)nc1 [Compound 20],competitive inhibition,–
"CC1=C(C#N)[C@@H](c2ccc(C#N)cc2S(C)(=O)=O)N(C)C(=O)N1c1cccc(C(F)(F)F)c1 [Compound 29, (4S)-4-[4-Cyano-2-(methylsulfonyl)phenyl]-3,6-dimethyl-2-oxo-1-[3-(trifluoromethyl)phenyl]-1,2,3,4-tetrahydropyrimidine-5-carbonitrile]",competitive inhibition,7.2
